Reference: patent publication US9365589B2, “C5, C6 oxacyclic-fused thiazine dioxide compounds as BACE inhibitors, compositions, and their use” (Merck Sharp & Dohme Corp., priority 2012, dated 2016)

Amino acid sequences for entries named in this document (tags omitted). Residues count along the entry.
UniProt P56817, 75-416: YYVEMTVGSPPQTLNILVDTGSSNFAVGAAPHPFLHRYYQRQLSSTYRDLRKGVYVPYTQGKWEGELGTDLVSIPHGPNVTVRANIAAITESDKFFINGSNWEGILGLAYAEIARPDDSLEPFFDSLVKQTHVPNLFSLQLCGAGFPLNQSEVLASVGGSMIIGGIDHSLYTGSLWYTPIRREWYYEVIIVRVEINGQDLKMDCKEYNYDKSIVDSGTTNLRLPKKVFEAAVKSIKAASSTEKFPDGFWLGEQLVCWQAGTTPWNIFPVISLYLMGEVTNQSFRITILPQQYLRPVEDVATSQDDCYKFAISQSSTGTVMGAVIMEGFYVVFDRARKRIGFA

Biological target: soluble human BACE1 catalytic domain (Homo sapiens (Human), UniProt P56817)
Experiment: BACE1 HTRF FRET Assay
Assay type: biochemical
Details: Ki calculated from IC50 using the Cheng-Prusoff equation; QSY7-APPswe-Eu substrate, pH 5.0
Source text: A homogeneous time-resolved FRET assay can be used to determine IC50 values for inhibitors of the soluble human BACE1 catalytic domain. This assay monitors the increase of 620 nm fluorescence that resulted from BACE1 cleavage of an APPswedish APP^swe mutant peptide FRET substrate (QSY7-[…]-Europium-amide). This substrate contains an N-terminal QSY7 moiety that serves as a quencher of the C-terminal Europium fluorophore (620 nm Em). In the absence of enzyme activity, 620 nm fluorescence is low in the assay and increased linearly over 3 hours in the presence of uninhibited BACE1 enzyme Inhibition of BACE1 cleavage of the QSY7-APP^swe-Eu substrate by inhibitors is manifested as a suppression of 620 nm fluorescence.
Reactions are initiated by addition of 10 μl of 600 nM QSY7-APP^swe-Eu substrate (200 nM final) to give a final reaction volume of 30 μl in a 384 well Nunc HTRF plate. The reactions are incubated at 30° C. for 1.5 hours. The 620 nm fluorescence is then read on a Rubystar HTRF plate reader (BMG Labtechnologies) using a 50 millisecond delay followed by a 400 millisecond acquisition time window Inhibitor IC50 values are derived from non-linear regression analysis of concentration response curves.

SMILES	Ki
COc1cnc(C(=O)Nc2ccc(F)c([C@]34COC(CF)[C@H]3S(=O)(=O)C(C)(C)C(=N)N4)c2)cn1 (single isomer, unassigned) [Example 4h]	204 nM
COc1cnc(C(=O)Nc2ccc(F)c([C@]34COC(CF)[C@H]3S(=O)(=O)C(C)(C)C(=N)N4)c2)cn1 (single isomer, unassigned) [Example 4e]	4 nM
